Measured values taken from patent publication US9353090B2, “Heterocyclic carboxylic acids as activators of soluble guanylate cyclase” (Boehringer Ingelheim International GmbH, priority 2014, dated 2016).

Sequences of proteins named here, by UniProt entry; tags and fusion partners are left off.
UniProt Q02153, whole entry: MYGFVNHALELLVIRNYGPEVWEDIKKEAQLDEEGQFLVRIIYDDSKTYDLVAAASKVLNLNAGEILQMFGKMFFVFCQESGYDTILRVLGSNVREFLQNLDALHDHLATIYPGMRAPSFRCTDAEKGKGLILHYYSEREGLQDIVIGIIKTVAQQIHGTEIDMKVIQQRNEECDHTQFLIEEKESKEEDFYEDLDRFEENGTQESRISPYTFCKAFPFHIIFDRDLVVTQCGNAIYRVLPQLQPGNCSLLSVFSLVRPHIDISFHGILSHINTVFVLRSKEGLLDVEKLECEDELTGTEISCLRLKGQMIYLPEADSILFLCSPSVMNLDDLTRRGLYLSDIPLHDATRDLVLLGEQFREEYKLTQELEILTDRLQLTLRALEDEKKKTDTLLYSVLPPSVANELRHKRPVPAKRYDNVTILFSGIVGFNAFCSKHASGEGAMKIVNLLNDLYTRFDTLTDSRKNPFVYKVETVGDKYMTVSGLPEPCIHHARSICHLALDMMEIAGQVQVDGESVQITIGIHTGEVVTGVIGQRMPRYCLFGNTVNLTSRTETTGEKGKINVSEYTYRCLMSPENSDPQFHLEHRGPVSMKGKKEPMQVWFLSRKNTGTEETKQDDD
UniProt Q02108, whole entry partner: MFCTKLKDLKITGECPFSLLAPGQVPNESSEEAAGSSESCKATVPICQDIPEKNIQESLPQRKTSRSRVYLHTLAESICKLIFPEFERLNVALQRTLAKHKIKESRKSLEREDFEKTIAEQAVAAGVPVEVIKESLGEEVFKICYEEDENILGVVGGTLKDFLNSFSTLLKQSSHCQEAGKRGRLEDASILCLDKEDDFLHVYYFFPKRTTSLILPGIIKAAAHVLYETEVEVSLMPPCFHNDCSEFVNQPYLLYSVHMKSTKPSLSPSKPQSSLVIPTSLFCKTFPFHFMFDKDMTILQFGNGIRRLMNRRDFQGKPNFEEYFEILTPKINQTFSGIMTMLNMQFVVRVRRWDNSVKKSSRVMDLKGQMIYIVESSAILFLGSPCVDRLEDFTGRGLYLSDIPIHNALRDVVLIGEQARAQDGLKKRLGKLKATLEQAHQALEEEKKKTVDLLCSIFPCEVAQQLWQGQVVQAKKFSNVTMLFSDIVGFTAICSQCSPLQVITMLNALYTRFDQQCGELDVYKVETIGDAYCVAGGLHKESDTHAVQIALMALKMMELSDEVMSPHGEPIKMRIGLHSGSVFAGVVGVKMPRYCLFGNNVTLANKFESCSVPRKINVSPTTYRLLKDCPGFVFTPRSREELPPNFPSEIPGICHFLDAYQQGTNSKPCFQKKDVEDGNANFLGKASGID

Assays:
[1] = target: human soluble guanylate cyclase alpha 1 and beta 1 subunits (sGC) (Homo sapiens (Human), UniProt Q02153); experiment: sGC cellular activator assay (cGMP, HTRF), in the presence and absence of 50% human serum; settings: CHO cells stably expressing human sGC alpha 1/beta 1, preincubated with 40 microM ODQ; cGMP by HTRF; Table 2 does not state whether with or without 50% human serum
Description: The sGC cellular activator assay is performed in the presence and absence of 50% human serum (HS) using Chinese hamster ovary cells that have been stably transfected to express the human soluble guanylate cyclase alpha 1 and beta 1 subunits (sGC). Cells are preincubated with 40 microM 1H-[1,2,4]oxadiazolo[4,3-a]quinoxalin-1-one (ODQ), an sGC inhibitor, for one h in buffer containing 0.1% bovine serum albumin and 3-isobutyl-1-methylxanthine (IBMX). Concentration response curves are prepared for test compounds in DMSO. An intermediate dilution of the compounds is performed in either buffer containing IBMX or type AB HS containing IBMX. Diluted compounds are added to cells and they are incubated at room temperature for thirty min. cGMP is measured using a CisBio homogeneous time resolved fluorescence kit and the EC50 is calculated for each compound.
Representative compounds of the present invention were tested for activity the above assay. Preferred compounds have an EC50 of <1,000 nM in the above assay and more preferred compounds have an EC50<200 nM.

[2] = Solubility in McIlvaine buffer at pH 2.2, 4.5 and 6.8 (24 h shaking, UPLC-UV); settings: for Solubility (pH 2.2): McIlvaine buffer pH 2.2; for Solubility (pH 4.5): McIlvaine buffer pH 4.5; for Solubility (pH 6.8): McIlvaine buffer pH 6.8
Description: Solubility is measured by the following method.
100 uL, 10 mM DMSO stock solution of each compound is prepared in a 96 well plate format. The experiment is done in single determination at 3 pH values (2.2, 4.5 and 6.8). For each pH and one reference, 40 uL of each compound is needed.
McIlvaine pH 2.2: To 2.076 g citric acid monohydrate and 0.043 g Na2HPO4×2H2O add 100 ml deionized water
McIlvaine pH 4.5: To 1.166 g citric acid monohydrate and 1.585 g Na2HPO4×2H2O add 100 ml deionized water
McIlvaine pH 6.8: To 0.476 g citric acid monohydrate and 2.753 g Na2HPO4×2H2O add 100 ml deionized water
With a suitable liquid handling device (Multipette® or a liquid handler) 390 uL of each buffer solution and 10 uL of compound is added to each well of a 96 deep well plate. The plates are covered firmly and shaken for 24 h on an over head shaker (at 54 RPM) at room temperature. The DMSO content in the final buffer is 2.5% v/v.
After 24 h the plates are centrifuged to remove droplets on the lid before opening (for ˜5 min at 2500 RPM).
The filtration is done under vacuum with Millipore 96 well filter plate. Filtrate is collected in a deep well plate and transferred to a suitable plate for UPLC analysis.
The reference plate is prepared by adding 10 uL of compound to 390 uL of 50:50 acetonitrile/water in a 96 deep well plate and transferred to a suitable plate for UPLC analysis. Wells are checked visually for precipitation, any presence noted under comments in reported results.
The samples are measured with UPLC-UV using the chromatographic method described below.
Waters Empower®2 software is used for generating Sample Sets (according to the plate layout), Sample Set Methods and Instrument Methods.
One Sample Set comprises the methods for three 96 well plates (one reference plate and two sample plates, and includes one Sample Set Method and one Instrument Method).
3. Data Processing and Analysis
The UV chromatograms collected at 254 nm are integrated and processed.
It is assumed that the compound is completely dissolved in the reference solution (50:50 acetonitrile/water)

[3] = Human liver microsome (HLM) metabolic stability assay; settings: human liver microsomes
Description: The 5 time point, high-throughput human liver microsome (HLM) metabolic stability assay is designed to determine in vitro compound metabolism. Compounds are incubated with HLMs at a concentration of 1 uM, at 37° C., for a total of 60 min. The percent of compound remaining at 5, 15, 30, and 60 min is used to calculate the t1/2 (min), CLint (mL/min/kg), CLh (mL/min/kg), and % Qh. The assay is based on a 96-well format and can accommodate up to 92 compounds per plate (n=1).
Using the 96-well multi-channel head, the Biomek FX, equipped with a Peltier heating block/shaker, is programmed to accomplish the following steps: • 1. Pipette 175 uL of 1.15 mg/mL microsomes into each of the 96 conical inserts (Analytical Sales and Products, catalog number 96PL05) that fit into the plate of the Peltier heating block/shaker (the incubation plate) • 2. Add 5 uL of compounds from the assay plate to the microsomes and shake the mixture at 600 rpm at 42.1° C. for 10 min (a setting of 42.1° C. on the Peltier is required for the samples to incubate at 37° C.) • 3. After 10 min, prompt the user to add the NADPH plate to the deck and add 20 uL from the NADPH plate to the incubation plate to start the reaction • 4. […]
The plates are analyzed using LC/MS/MS with electron spray ionization (ESI) and the previously determined MRM transitions. […]

EC50 [1] [nM] | Solubility (pH 2.2) [2] [μg/mL] | Solubility (pH 4.5) [2] [μg/mL] | Solubility (pH 6.8) [2] [μg/mL] | Metabolic stability (Qh %), % hepatic blood flow [3] [%] | Compound
5 | 112.6 | 48.0 | 64.9 | 69 | CO[C@@H]1CN(c2nc(-c3cc(F)cc(C)c3OCc3ccc4c(c3)[C@@H](C)CN(C3COC3)CC4)cs2)CC[C@@H]1C(=O)O
10 | 140 | 15 | 1.9 | 33 | Cc1ccc(OCc2ccc3c(c2C)CCN(C2COC2)CC3)c(-c2csc(N3CC[C@@]4(C(=O)O)C[C@H]4C3)n2)c1
